# Antibody variant affinities, Ab-14 heavy chain, assay B

Reference: Li et al. 2023, doi:10.1038/s41467-023-39022-2. File: FLAb, binding data.

All variants were tested on one target, the spike HR2 peptide PDVDLGDISGINAS (SARS-CoV-2).

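Phage display of a naive human antibody library on the peptide gave the parent. Designed CDR sequences, proposed from the first random library and measured here. Several design methods are mixed in this list. The scFvs were displayed on barcoded MATa yeast, the peptide on MATalpha yeast. The frequency of each diploid, read from paired DNA barcodes, reflects how well the two displayed proteins bind. Scores were corrected for input abundance and mapped to Kd with protein pairs of known affinity run in the same pool. Mating was done six times.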

Parent: Ab-14, a human scFv built as VH, a (GGGGS)3 linker, VL. Only the CDRs of the heavy chain vary.
VH: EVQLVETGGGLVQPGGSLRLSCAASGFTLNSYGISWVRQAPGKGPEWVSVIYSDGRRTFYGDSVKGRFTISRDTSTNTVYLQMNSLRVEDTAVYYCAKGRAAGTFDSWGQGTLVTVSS
VL: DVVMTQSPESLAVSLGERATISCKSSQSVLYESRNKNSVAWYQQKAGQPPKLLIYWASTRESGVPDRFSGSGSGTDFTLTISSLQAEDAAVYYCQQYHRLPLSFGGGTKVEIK

Changes read parent residue, position, new residue, counted from the first residue of the VH shown. Variants here have at most six changes. Values are log10 of the apparent Kd in nM; lower means stronger binding. "nd" means that the variant was in the library but no mating with the target was seen in that replicate; the authors take this as a sign of poor binding, and no number exists.

The variant F59A/G61D/S63Q/A101P/S107D gave 0.73, 1.06, 1.29, 0.57, 1.42, 0.81 (controls 2 of 18). With T28Q/G61I/S63H/R100K the result was nd, nd, nd, nd, nd, nd (controls 0 of 18). The variant T28K/G61I/A101I gave nd, nd, nd, nd, nd, nd (controls 0 of 18). The variant T28E/R100K/A101H showed nd, 1.83, 1.73, 1.65, 2.31, 1.84 (controls 0 of 18). With N30E/A101T the result was 1.47, 0.49, nd, 0.79, 0.16, 0.63; 2.38, 0.55, 1.95, 0.87, 0.82, 0.79 (controls 0 of 36). The variant N30Q/G61D/A101W/S107L gave nd, nd, nd, nd, nd, nd (controls 0 of 18).

The variant G61D/R100D showed 1.07, 0.55, 0.69, 0.64, 0.70, 0.65 (controls 0 of 18). The variant T28N/R100Q/S107Q showed 1.06, 0.73, 1.53, 0.95, nd, 1.94 (controls 0 of 18). The variant T28V/S31N/R100Q gave 1.67, 4.05, 0.53, 0.68, 0.71, 1.66 (controls 0 of 18). With S31E/R100A/G103V/D106N/S107Q the result was nd, nd, nd, nd, nd, nd (controls 0 of 18). The variant T28E/R100N/A101Q showed 0.38, 0.89, 0.26, 0.67, 0.19, 0.73 (controls 0 of 18). For T28E/G61I/S63E/R100K/A101T, the assay gave 0.58, 0.83, 0.86, 0.82, 0.82, 0.94 (controls 1 of 18).

The variant R56V/G61S/R100N showed 0.54, -0.04, 0.31, 0.34, 0.30, 0.33 (controls 0 of 18). For R56F/F59A/G61L, the assay gave nd, 1.03, 1.12, 0.63, 1.57, 0.95 (controls 1 of 18). The variant T28D/V64A/T104W/D106N gave nd, nd, nd, nd, nd, nd (controls 0 of 18). The variant Y32H/I34R/A102S showed nd, nd, 3.21, nd, nd, nd (controls 0 of 18). With G61I/A101V/S107K the result was nd, nd, nd, nd, nd, nd (controls 0 of 18). The variant T28S/G61R/A101T showed 0.70, 0.52, -0.01, 0.79, 0.96, 0.65 (controls 0 of 18).

For S53A/A101V/S107I, the assay gave 0.16, 0.99, 0.34, 1.05, 0.44, 0.38 (controls 0 of 18). For T28S/S31E/D62N/A101T, the assay gave -0.25, -0.26, 0.17, -0.14, -0.20, -0.26 (controls 0 of 18). The variant T28Q/S31N/A101T showed 1.04, 0.28, 0.91, 0.51, 0.67, 0.95 (controls 0 of 18). For T28D/G61A/S63N/A101T, the assay gave 0.10, -0.45, 0.01, -0.44, 0.09, -0.22 (controls 0 of 18). The variant T28G/S31E/G61I/A101N showed 0.27, 0.00, -0.20, -0.11, 1.42, 0.37 (controls 0 of 18). The variant T28E/G61S/R100K showed 1.47, 0.43, 0.93, 0.79, 0.07, 1.48 (controls 0 of 18).

The variant T28D/G61H/R100S gave 0.61, 0.13, 0.23, 0.25, 0.16, 0.59 (controls 0 of 18). With G26K/T28D/A101E the result was nd, 0.70, nd, nd, 0.88, nd (controls 0 of 18). The variant G61V/S63E gave 2.21, 1.38, nd, 2.00, 3.19, nd (controls 0 of 18). The variant F59A/G103V/T104S gave nd, nd, nd, nd, nd, nd (controls 0 of 18). For S63F, the assay gave nd, nd, nd, nd, nd, nd (controls 1 of 18). For T28D/G61I, the assay gave 0.26, 0.13, 0.17, -0.19, 0.09, 0.05 (controls 1 of 18).

The 3 strongest on average among those seen in every replicate, once more:

{"changes": "T28S/S31E/D62N/A101T", "log10 Kd (nM) by replicate": "-0.25, -0.26, 0.17, -0.14, -0.20, -0.26", "signal with controls": "0/18"}
{"changes": "T28D/G61A/S63N/A101T", "log10 Kd (nM) by replicate": "0.10, -0.45, 0.01, -0.44, 0.09, -0.22", "signal with controls": "0/18"}
{"changes": "T28D/G61I", "log10 Kd (nM) by replicate": "0.26, 0.13, 0.17, -0.19, 0.09, 0.05", "signal with controls": "1/18"}

The parent sequence was in this pool as ten entries: three were never detected, three once, and four in most replicates, with averages from 0.34 to 2.37. A sequence that the file lists under several names has all its replicates listed entry by entry, parted by semicolons. In the paper, a design with two or fewer of six values counts as a poor binder. Three control strains display no target. For all heavy chain designs, 1% of the pairings with them gave a signal, with a median of 2.08 and one signal in twenty below 0.84, so weak values seen in few replicates may be background. The control count says in how many pairings with the empty strains this scFv gave a signal. A sequence measured in both rounds can read differently, since the two assays cover different ranges.